Measured values from patent US10195239B2, “Extract of Trigonella foenum-graecum” (dated 2019).

Assay: Removal of malodour from shoes, soles and urine stains
Conditions: washing the stains

For chlorine, the “removal of malodour of urine stains (dog urine) on concrete” value was “no successful removal of the malodour”.
